Experimental findings from patent US9290457B2, “Substituted dihydropyrimidinones and their use as inhibitors of neutrophil elastase activity” (Boehringer Ingelheim International GmbH, priority 2014, dated 2016) are described below.

The chains behind the UniProt entries cited, without tags or fusion partners. Residues count along the entry.
UniProt P08246, 30-247 limits assumed: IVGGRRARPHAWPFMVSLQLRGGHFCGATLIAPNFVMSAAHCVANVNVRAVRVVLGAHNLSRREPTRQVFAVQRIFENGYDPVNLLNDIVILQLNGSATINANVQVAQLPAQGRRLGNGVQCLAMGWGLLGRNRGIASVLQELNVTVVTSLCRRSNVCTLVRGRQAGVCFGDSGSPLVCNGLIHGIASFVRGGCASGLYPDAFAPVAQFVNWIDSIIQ

In this test the target is neutrophil elastase (Homo sapiens (Human), UniProt P08246). Nature of the test: Human Neutrophil Elastase Assay. Conditions: substrate MeOSuc-Ala-Ala-Pro-Val-AMC.

Consider `CC(=O)N[C@H]1CCN(C(=O)c2cc(C#N)ccc2C2C(C(C)=O)=C(C)N(c3cccc(C(F)(F)F)c3)C(=O)N2C)C1` (some centres unmarked), for which the IC50 (usually the concentration at which inhibition is half-maximal) was under 1 nM.

Consider `CC(=O)C1=C(C)N(c2cccc(C(F)(F)F)c2)C(=O)N(C)C1c1ccc(C#N)cc1C(=O)N(C)CCN1CCOCC1` (centres unmarked), for which the IC50 is under 1 nM.

With `CC(=O)C1=C(C)N(c2cccc(C(F)(F)F)c2)C(=O)N(C)C1c1ccc(C#N)cc1C(=O)N1CCN(C(C)=O)CC1` (centres unmarked), the IC50 amounted to 1.3 nM.

`CC(=O)C1=C(C)N(c2cccc(C(F)(F)F)c2)C(=O)N(C)C1c1ccc(C#N)cc1C(=O)N1CCC(N2CCOCC2)C1` (centres unmarked) yielded an IC50 of 1.1 nM.

In turn, `CC(=O)C1=C(C)N(c2cccc(C(F)(F)F)c2)C(=O)N(C)C1c1ccc(C#N)cc1C(=O)N1CC[C@H](N(C)C(C)=O)C1` (some centres unmarked) had an IC50 of under 1 nM.

Regarding `CCOC(=O)C1=C(C)N(c2cccc(C(F)(F)F)c2)C(=O)N(C)C1c1ccc(C#N)cc1C(=O)N(C)CCNC` (centres unmarked), the IC50 is under 1 nM.

`CC(=O)C1=C(C)N(c2cccc(C(F)(F)F)c2)C(=O)N(C)C1c1ccc(C#N)cc1C(=O)N1CC[C@@H](N(C)C(C)=O)C1` (some centres unmarked) yielded an IC50 of under 1 nM.

Consider `CCOC(=O)C1=C(C)N(c2cccc(C(F)(F)F)c2)C(=O)N(C)C1c1ccc(C#N)cc1C(=O)NC(C)(C)C#N` (centres unmarked), for which the IC50 worked out at 1.6 nM.

As to `CC(=O)C1=C(C)N(c2cccc(C(F)(F)F)c2)C(=O)N(C)C1c1ccc(C#N)cc1C(=O)NCCN1CCOCC1` (centres unmarked), the IC50 is under 1 nM.

`CC(=O)C1=C(C)N(c2cccc(C(F)(F)F)c2)C(=O)N(C)C1c1ccc(C#N)cc1C(=O)N1CCC(N2CCOCC2)CC1` (centres unmarked) had an IC50 of 1.9 nM. This counts as single-digit nanomolar.

Consider `CC(=O)N[C@@H]1CCN(C(=O)c2cc(C#N)ccc2C2C(C(C)=O)=C(C)N(c3cccc(C(F)(F)F)c3)C(=O)N2C)C1` (some centres unmarked), for which the IC50 was under 1 nM.
